Most compounds without a hit are left out; they make up all but 2.5% or so of the library.
ClpP mod: qHTS Assay for Activators of ClpP; ATP-dependent Clp protease proteolytic subunit (Bacillus subtilis (strain 168)), P80244; purified B. subtilis ClpP, FRET peptide cleavage, 20 min; actives 1.9% (n = 340,000); AID 651965, 2013; Potency, µM (top dose mostly 57.5 µM), without a hit: at the highest dose activity change, negative = active; active means well fitted falling curve with a large enough effect; inconclusive means small, poorly fitted or top-dose-only effect; inactive means no such curve, though single readings can be large or run the other way; further: potency means the concentration at half of the fitted maximal effect; the source files actives as falling curves though it sought activators and does not explain the sign; nearly all actives have a fitted effect of over 65% in size
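Purified B. subtilis ClpP, 10 microg/mL final in Tris/HCl pH8 with KCl, BSA, glycerol and Tween-20, cleaved an Abz/nitrotyrosine-quenched decapeptide. Fluorescence (ex 320, em 430) was read at 0 and 20 min at room temperature. Delta was normalized to 5.8 microM ADEP and DMSO/no-enzyme controls.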
rTrxR1 inhibitor: inhibitors of rat thioredoxin reductase 1; O89049; recombinant rTrxR1, NADPH fluorescence consumption, selenite substrate; Potency, µM (titrated, usually from 114 µM), for the others: at the highest dose activity change, negative = inhibition, most hits filed as inhibitors; actives 1% (n = 390,000); further: potency means the concentration at half of the fitted maximal effect; on the % scale 0 is the no-effect control and ±100 the full control effect; nearly all actives have a fitted effect of over 65% in size
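Rat TrxR1 (90 nM in the dispensed reagent) was pre-reduced with 400 uM NADPH for 5 min at room temperature, then incubated with compound for 15 min. After 400 uM selenite was added, NADPH fluorescence (Ex 340/Em 450 nm) was followed for 8 min.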
TrxR1 substrate: is turned over as a substrate by rat TrxR1; O89049; purified TrxR1 substrate turnover, NADPH consumption readout; Potency, µM (series often up to 114 µM), for inactives: top-dose activity change, negative = substrate turnover; actives 0.01% (n = 390,000); further: potency means the concentration at half of the fitted maximal effect; on the % scale 0 is the no-effect control and ±100 the full control effect; nearly all actives have a fitted effect of over 50% in size
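Rat TrxR1, dispensed at 90 nM, was prereduced with 400 uM NADPH (final) for 5 min at ~22 deg C, then incubated with compound 15 min before 400 uM selenite. A first-read NADPH fluorescence drop versus no-compound background flagged substrates.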
miR-21 reporter: miR-21 reporter, rising signal | 340,000 tested, under 10 active | AID 2288 | HeLa miR-21 FLuc reporter, luciferase, 48 h | Potency, µM (titrated, usually from 38.3 µM), for inactives: at the highest dose reporter change, positive = more light; active = well fitted rising curve with a large enough effect; inconclusive = small, poorly fitted or top-dose-only effect; inactive = no such curve, though single readings can be large or run the other way;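 further: % of control where 0% means no effect; miR-21 action dims this reporter so a rising signal means less miR-21 action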
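Compounds were titrated across several concentrations (up to approximately 40 uM) and incubated 48 hours with HeLa miR-21-FLuc reporter cells (miR-21 target sequence downstream of FLuc, endogenous miR-21). Readout was firefly luciferase luminescence after lytic detection reagent.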
Anesthetic bind: binds horse apoferritin like a general anesthetic | P02791 | apoferritin/1-aminoanthracene competitive binding, fluorescence | Potency, µM (highest dose often 77.5 µM), for the others: at the top dose activity change, negative = displacement, usual class: inhibitors | actives 0.074% (n = 350,000); further: potency means the concentration at half of the fitted maximal effect; on the % scale 0 is the no-effect control and ±100 the full control effect; nearly all actives have a fitted effect of over 20% in size
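Probe: 1-aminoanthracene (50% saturated, PBS). Protein: horse-spleen apoferritin, 10 uM. Incubation: 10 min, room temperature. Detection: 380 nm excitation, 535 nm emission. Analysis: normalized response, four-parameter Hill.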
* hit, by the source's call; ? = inconclusive; nt = no result; [ ] = remark or other dose. Unless noted, the call rests on the fitted dose curve; in most records, active means well fitted curve in the direction sought with a large enough effect; inconclusive means small, poorly fitted or top-dose-only effect, or another doubt; inactive means no such curve, though single readings can be large; an effect the other way counts as inactive or inconclusive.

The chains behind the UniProt entries cited, without tags or fusion partners.
ATP-dependent Clp protease proteolytic subunit (Bacillus subtilis (strain 168)), P80244, UniProt P80244, whole entry, looked up: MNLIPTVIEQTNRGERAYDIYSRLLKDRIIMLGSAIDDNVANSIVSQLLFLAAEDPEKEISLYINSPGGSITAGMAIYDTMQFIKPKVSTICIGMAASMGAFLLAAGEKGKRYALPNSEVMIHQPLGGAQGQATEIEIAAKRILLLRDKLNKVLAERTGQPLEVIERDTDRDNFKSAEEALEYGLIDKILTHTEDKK

A first look:
(1) Cc1cc(-c2ccc(C)c(S(=O)(=O)Nc3ccccc3C(F)(F)F)c2)on1
(2) O=C(Nc1c(C(=O)O)oc2ccccc12)c1ccc(C(F)(F)F)cc1

| Compound | 1 | 2 |
| --- | --- | --- |
| ClpP mod | -2% | 0% |
| rTrxR1 inhibitor | 5%[57.1 µM] | 11%[57.1 µM] |
| TrxR1 substrate | -5%[57.1 µM] | 5%[57.1 µM] |
| miR-21 reporter | 26% | 1% |
| Anesthetic bind | -9% | -12% |

The whole of this part, from the first entry:
(1) Cc1cc(-c2ccc(C)c(S(=O)(=O)Nc3ccccc3C(F)(F)F)c2)on1
(2) O=C(Nc1c(C(=O)O)oc2ccccc12)c1ccc(C(F)(F)F)cc1
(3) CCC1(CC)C(=O)C2=C3C1[C@H](C(=O)OC)CC(C(=O)OC)C[C@H]3[C@H]1C(=O)N(C)C(=O)[C@H]1[C@H]2C (some centres not stated)
(4) O=C(NC1CCCCC1)N(CCN1CCOCC1)Cc1cc2cc3c(cc2[nH]c1=O)OCCO3
(5) O=C(Nc1ccccc1C(=O)Nc1ccccn1)c1ccc([N+](=O)[O-])cc1
(6) COc1ccc(C(=O)Nc2ccccc2C(=O)Nc2ccccn2)cc1

| Compound | 1 | 2 | 3 | 4 | 5 | 6 |
| --- | --- | --- | --- | --- | --- | --- |
| ClpP mod | -2% | 0% | nt | 35µM* | 32µM* | nt |
| rTrxR1 inhibitor | 5%[57.1 µM] | 11%[57.1 µM] | -1% | 6%[57.1 µM] | 9%[57.1 µM] | 3% |
| TrxR1 substrate | -5%[57.1 µM] | 5%[57.1 µM] | -2% | 20%[57.1 µM] | -10% | 3% |
| miR-21 reporter | 26% | 1% | nt | -16% | 4% | -24% |
| Anesthetic bind | -9% | -12% | -1% | -6% | -5% | -17% |

(7) CCc1n[nH]c2c1C(=O)CC(C)(C)C2
(8) Cc1noc(C)c1COC(=O)c1cc2c(C)nn(-c3ccc(F)cc3)c2s1
(9) Cc1nn(-c2ccc(F)cc2)c2sc(C(=O)OCC(=O)N3CCC(C)CC3)cc12
(10) COc1ccc(-c2nn(-c3ccccc3)cc2C(=O)O)cc1OC
(11) O=C(NC1CCCC1)c1ccc(CS(=O)Cc2ccccc2Cl)o1 (configuration not stated)
(12) O=C(NC1CCCCC1)c1ccc(CS(=O)Cc2ccccc2Cl)o1 (configuration not stated)

| Compound | 7 | 8 | 9 | 10 | 11 | 12 |
| --- | --- | --- | --- | --- | --- | --- |
| ClpP mod | 25µM* | -4% | 22µM* | 25µM* | 0% | 0% |
| rTrxR1 inhibitor | 15%[57.1 µM] | -1% | 7% | 22% | 50µM* | ? |
| TrxR1 substrate | -5%[57.1 µM] | -5% | 16% | 44% | 6% | 4% |
| miR-21 reporter | -1% | -2% | -5% | -10% | -2% | -2% |
| Anesthetic bind | 0% | -10% | 0% | -6% | -18% | 7% |

(13) CC1(C)CC(=O)C(C(C2=C(O)CC(C)(C)CC2=O)c2ccc([N+](=O)[O-])cc2)C(=O)C1 (configuration not stated)
(14) Cc1ccc(C(C2=C(O)CC(C)(C)CC2=O)C2C(=O)CC(C)(C)CC2=O)s1 (configuration not stated)
(15) CC1(C)CC(=O)C(Br)=C(O)C1
(16) CC1(C)CC(=O)C(C(C2=C(O)CC(C)(C)CC2=O)c2ccc(Br)s2)C(=O)C1 (configuration not stated)
(17) COc1cccc(C(C2=C(O)CC(C)(C)CC2=O)C2C(=O)CC(C)(C)CC2=O)c1 (configuration not stated)
(18) CCOc1ccc(N2CC(c3nc4ccccc4n3Cc3cccc(Cl)c3)CC2=O)cc1 (configuration not stated)

| Compound | 13 | 14 | 15 | 16 | 17 | 18 |
| --- | --- | --- | --- | --- | --- | --- |
| ClpP mod | 1% | 0% | nt | 1% | -3% | -3% |
| rTrxR1 inhibitor | ? | 10µM* | 27%[57.1 µM] | 4µM* | 45µM* | 21% |
| TrxR1 substrate | -8% | 6% | -2%[57.1 µM] | -16% | -7% | -1% |
| miR-21 reporter | -3% | 3% | 0% | 18% | 2% | 11% |
| Anesthetic bind | -2% | ? | -5% | ? | -9% | 55% |

(19) CCOC(=O)Cn1c(-c2ccccn2)nc2ccccc21
(20) CCN(CC)CCNC(=O)Cn1c(-c2ccccn2)nc2ccccc21
(21) O=C(O)Cn1c(-c2ccccn2)nc2ccccc21
(22) O=C(Nc1cccn(Cc2ccc(F)cc2)c1=O)NC1CCCCC1
(23) COC(=O)c1ccccc1NC(=O)NC1CCN(Cc2ccccc2)CC1
(24) Cc1ccc(Cn2cccc(NC(=O)NC3CCCCC3)c2=O)cc1

| Compound | 19 | 20 | 21 | 22 | 23 | 24 |
| --- | --- | --- | --- | --- | --- | --- |
| ClpP mod | 28µM* | 14µM* | 4% | 18µM* | 28µM* | ? |
| rTrxR1 inhibitor | 8% | 16%[57.1 µM] | 8% | 6% | 12%[57.1 µM] | 12%[57.1 µM] |
| TrxR1 substrate | 75% | 84% | 85% | 23% | 17%[57.1 µM] | 5%[57.1 µM] |
| miR-21 reporter | 0% | -5% | -34% | -10% | -4% | 1% |
| Anesthetic bind | -10% | -9% | -7% | ? | -1% | ? |

Four entries already listed, ordered by the number in miR-21 reporter, ascending:
No. | molecule | miR-21 reporter
20 | CCN(CC)CCNC(=O)Cn1c(-c2ccccn2)nc2ccccc21 | -5%
11 | O=C(NC1CCCC1)c1ccc(CS(=O)Cc2ccccc2Cl)o1 (configuration not stated) | -2%
7 | CCc1n[nH]c2c1C(=O)CC(C)(C)C2 | -1%
15 | CC1(C)CC(=O)C(Br)=C(O)C1 | 0%

New compounds follow.
(25) COc1cccc(Cn2cccc(NC(=O)NC3CCCCC3)c2=O)c1
(26) O=C(Nc1cccn(Cc2ccccc2)c1=O)NC1CCCCC1
(27) O=C(O)CN(CC(=O)O)c1ccccc1OCCOc1ccccc1N(CC(=O)O)CC(=O)O
(28) COC(=O)c1ccccc1NC(=O)C1CCCCC1C(=O)O (configuration not stated)
(29) CN(c1ccccc1)S(=O)(=O)c1cccc(NC(=O)c2ccc(=O)[nH]n2)c1
(30) CN(c1ccccc1)S(=O)(=O)c1cccc(NC(=O)c2ccc(=O)[nH]c2)c1

| Compound | 25 | 26 | 27 | 28 | 29 | 30 |
| --- | --- | --- | --- | --- | --- | --- |
| ClpP mod | 28µM* | 20µM* | nt | 28µM* | 25µM* | -1% |
| rTrxR1 inhibitor | -11% | 7% | nt | 19% | 19% | 4% |
| TrxR1 substrate | 15% | 31% | nt | 23% | 0% | 0% |
| miR-21 reporter | -6% | -13% | nt | 1% | nt | nt |
| Anesthetic bind | ? | ? | -7% | 6% | nt | nt |

(31) COC(=O)c1cc(C)nc2c1c(C)nn2-c1ccccc1
(32) CCc1nc2c(c(SC)nn2-c2ccccc2)c(N)c1C(=O)OC
(33) CCOC(=O)c1c(NC(=O)CSc2cn(CCNC(=O)c3ccc(OC)c(OC)c3)c3ccccc23)sc2c1CCCC2
(34) c1csc(C2C3=C(Nc4ncnn42)c2ccccc2OC3)c1 (configuration not stated)
(35) CC1=C(C(N)=O)C(c2cccs2)n2ncnc2N1 (configuration not stated)
(36) Cc1cc(C(=O)NCCC2=CCCCC2)c(C)o1

| Compound | 31 | 32 | 33 | 34 | 35 | 36 |
| --- | --- | --- | --- | --- | --- | --- |
| ClpP mod | -8% | 32µM* | -6% | ? | 0% | -3% |
| rTrxR1 inhibitor | 20% | 9% | 13% | 79µM* | 20% | 32µM* |
| TrxR1 substrate | 5% | 4% | -2% | 18% | 21% | -7% |
| miR-21 reporter | nt | -2% | 3% | 0% | 1% | -43% |
| Anesthetic bind | nt | -7% | -9% | 65% | 7% | -13% |

(37) Clc1cccc(Cl)c1CNc1ccc(N2CCCC2)cc1
(38) Cc1cccc2sc(N(Cc3cccnc3)C(=O)C3COc4ccccc4O3)nc12 (configuration not stated)
(39) CCCOc1ccc(-c2nc(C#N)c(N3CCN(C)CC3)o2)cc1
(40) CCCOc1ccc(-c2nc(C#N)c(N3CCc4ccccc4C3)o2)cc1
(41) CCOc1ccc(-c2nc(C#N)c(N3CCN(C)CC3)o2)cc1
(42) COc1ccc(-c2nc(C#N)c(N3CCCCCC3)o2)cc1

| Compound | 37 | 38 | 39 | 40 | 41 | 42 |
| --- | --- | --- | --- | --- | --- | --- |
| ClpP mod | nt | -4% | 32µM* | 16µM* | ? | 30% |
| rTrxR1 inhibitor | 3.5µM* | 31%[57.1 µM] | -17% | 95% | 1% | 29% |
| TrxR1 substrate | 5%[57.1 µM] | 4%[57.1 µM] | 62% | 72% | 68% | 187% |
| miR-21 reporter | -7% | 3% | -6% | -3% | -13% | -19% |
| Anesthetic bind | -14% | -5% | -7% | -3% | 1% | 6% |

(43) CCOc1ccc(-c2nc(C#N)c(N3CCN(CC)CC3)o2)cc1
(44) CCN1CCN(c2oc(-c3ccc([N+](=O)[O-])cc3)nc2C#N)CC1
(45) CCCOc1ccc(-c2nc(C#N)c(N3CCN(CC)CC3)o2)cc1
(46) CCOc1cc2[nH]c(=O)n(CCCCC(=O)N3CCN(c4ccccc4OC)CC3)c(=O)c2cc1OCC
(47) O=C(Nc1ccccc1N1CCCCC1)c1ncoc1-c1ccc(F)cc1

| Compound | 43 | 44 | 45 | 46 | 47 |
| --- | --- | --- | --- | --- | --- |
| ClpP mod | 10µM* | nt | 28µM* | -10% | 28µM* |
| rTrxR1 inhibitor | 1% | 19%[11.4 µM] | -9% | 18%[57.1 µM] | 10% |
| TrxR1 substrate | 93% | 4%[11.4 µM] | 77% | 8%[57.1 µM] | 16% |
| miR-21 reporter | -7% | 0% | -10% | -2% | -5% |
| Anesthetic bind | -15% | -1% | -23% | 0% | 1% |

Screening results from PubChem BioAssay.
